B1: P3A1 G1 NAC6.S: P3A1 G1 loop variant VNAR, SEQ ID NO: 80 (protein)
chain: TRVDQSPSSLSASVGDRVTITCVLTDTRYALYSSTYWYRKNPGSTDEERISIGGRYSESVNKGSKSFTLTISSLQPEDSATYYCRAREARHPWLRQWYDGAGTKVEIKQASGAHHHHHHGAEFEQKLISEEDL
B2: P3A1 G1 AE3.S: P3A1 G1 loop variant VNAR, SEQ ID NO: 78 (protein)
chain: TRVDQSPSSLSASVGDRVTITCVLTGTRYGLYSSTYWYRKNPGSSDEERISISGRYSESVNKGTKSFTLTISSLQPEDSATYYCRAREARHPWLRQWYDGAGTKVEIKQASGAHHHHHHGAEFEQKLISEEDL
B3: P3A1 G1 NAC6: P3A1 G1 loop variant VNAR, SEQ ID NO: 79 (protein)
chain: TRVDQSPSSLSASVGDRVTITCVLTDTRYALYSTYWYRKNPGSTDEERISIGGRYSESVNKGSKSFTLTISSLQPEDSATYYCRAREARHPWLRQWYDGAGTKVEIKQACKAHHHHHHG
B4: P3A1 G1 AE3: P3A1 G1 loop variant VNAR, SEQ ID NO: 77 (protein)
chain: TRVDQSPSSLSASVGDRVTITCVLTGTRYGLYSTYWYRKNPGSSDEERISISGRYSESVNKGTKSFTLTISSLQPEDSATYYCRAREARHPWLRQWYDGAGTKVEIKQACKAHHHHHHG
B5: P3A1 G1 NAG8: P3A1 G1 loop variant VNAR, SEQ ID NO: 81 (protein)
chain: TRVDQSPSSLSASVGDRVTITCVLTGTKYGLYATYWYRKNPGSPNKDRMIIGGRYSESVNNGTKSFTLTISSLQPEDSATYYCRAREARHPWLRQWYDGAGTKVEIKQACKAHHHHHHGAEFEQKLISEEDLG

tested on: hROR1 and mROR1; assay: Binding to both hROR1 and mROR1 (summary statement); set-up: species or system human, mouse

Experimentally confirmed binding to both hROR1 and mROR1, bind to both hROR1 and mROR1:
B1, B2, B3, B4, B5
